Common to all, as to assay: purified protein, by the assay type
For data set [1], the system named is O=C(Cc1ccccc1)N[C@@H]1C(=O)N2C(C(=O)O)=C(COc3ccc4ccc(=O)oc4c3)C[S+]([O-])[C@H]12. Particulars: substrate hydrolysis.
In data set [2] the test system is [H][C@@]12[C@H](NC(=O)Cc3ccccc3)C(=O)N1C(C(=O)O)=C(COc1ccc3ccc(=O)oc3c1)CS2(=O)=O. To be noted: substrate hydrolysis.
The test system of data set [3] is O=C(Cc1cccs1)N[C@@H]1C(=O)N2C(C(=O)O)=C(CSc3ccc([N+](=O)[O-])c(C(=O)O)c3)CS[C@H]12. Particulars: substrate hydrolysis.
The test system of data set [4] is O=C(Cc1ccccc1)N[C@@H]1C(=O)N2C(C(=O)O)=C(COc3ccc4ccc(=O)oc4c3)CS[C@H]12. To be noted: other: NDM-1; substrate hydrolysis.

As to BcII (Bacillus cereus), the Km in data set [1] (other: BcII) was 24.4 ± 1.7 µM; in data set [2] (other: BcII), 40.4 ± 3.3 µM; in data set [3] (other: BcII), 135.9 ± 16.4 µM. Moreover, the results for the kcat in data set [1] (other: BcII) and in data set [2] (other: BcII) were 17.1 s⁻¹ and 151 s⁻¹, respectively.

Regarding NDM-1 (Klebsiella pneumoniae), the kcat came to 126 s⁻¹ in data set [1] (other: NDM-1), 103 s⁻¹ in data set [4], 298 s⁻¹ in data set [2] (other: NDM-1) and 92.5 s⁻¹ in data set [3] (other: NDM-1). Also, the Km in data set [4] is 17.6 ± 1.7 µM; in data set [3] (other: NDM-1), 34.6 ± 6.6 µM.

On to SPM-1 (Pseudomonas aeruginosa), for which the kcat in data set [2] (other: SPM-1) was 27.4 s⁻¹. The Km in data set [3] (other: SPM-1) came out at 25.3 ± 6.1 µM.

As for VIM-2 (Escherichia coli), the results for the kcat in data set [1] (other: VIM-2), in data set [2] (other: VIM-2) and in data set [3] (other: VIM-2) were 126 s⁻¹, 291 s⁻¹ and 48.2 s⁻¹, respectively. For the same substance, the Km was found to be 15.2 ± 1.2 µM in data set [2] (other: VIM-2) and 26.1 ± 3.1 µM in data set [3] (other: VIM-2).

A word on the Km: it is the concentration of substrate that gives half-maximal velocity. Usually kcat stands for the number of substrate molecules converted per active site and unit of time at saturation.

For the origin of these results see publication PMC3910272, “Assay Platform for Clinically Relevant Metallo-β-lactamases” (Journal of Medicinal Chemistry, 2013).
